Test results from patent publication US20210094998A1.

By UniProt entry, the sequences of proteins in these tests, tags left out.
UniProt P49146, whole entry: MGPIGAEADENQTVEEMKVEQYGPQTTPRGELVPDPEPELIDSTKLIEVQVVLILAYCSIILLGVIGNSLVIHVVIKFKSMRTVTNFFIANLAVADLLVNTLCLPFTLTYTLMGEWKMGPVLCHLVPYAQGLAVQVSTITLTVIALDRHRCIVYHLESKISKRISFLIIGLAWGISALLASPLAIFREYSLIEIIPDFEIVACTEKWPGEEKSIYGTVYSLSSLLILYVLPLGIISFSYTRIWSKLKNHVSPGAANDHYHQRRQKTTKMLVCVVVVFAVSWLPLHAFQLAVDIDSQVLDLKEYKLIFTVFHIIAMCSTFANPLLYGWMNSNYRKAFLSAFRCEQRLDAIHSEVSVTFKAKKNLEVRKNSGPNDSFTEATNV

Target: human Y2 receptor (human) (UniProt P49146)
Test: cell-based or functional assay

EC50, cAMP assay (LANCE) on receptor-expressing cells: 0.08 nM
Substance: PYY3-36 (peptide)
